Measured values: publication PMC6694038, “Pharmacogenomic–pharmacokinetic study of selective estrogen-receptor modulators with intra-patient dose escalation in breast cancer” (Breast Cancer (Tokyo, Japan), 2019)

Conditions: human, in vivo

With `CN(C)CCOc1ccc(/C(=C(/CCCl)c2ccccc2)c2ccccc2)cc1` [TOR, toremifene] the “Total activity, regression mean: Current smoking status” value was −2265.1.
